Laboratory results taken from ChEMBL document CHEMBL1143931, “A new synthesis of the ORL-1 antagonist 1-[(3R,4R)-1-cyclooctylmethyl-3-hydroxymethyl-4-piperidinyl]-3-ethyl-1,3-dihydro-2H-benzimidazol-2-one (J-113397) and activity in a calcium mobilization assay” (2008).

Chains of the proteins cited; added tags and fusions are not shown.
UniProt P35372, whole entry: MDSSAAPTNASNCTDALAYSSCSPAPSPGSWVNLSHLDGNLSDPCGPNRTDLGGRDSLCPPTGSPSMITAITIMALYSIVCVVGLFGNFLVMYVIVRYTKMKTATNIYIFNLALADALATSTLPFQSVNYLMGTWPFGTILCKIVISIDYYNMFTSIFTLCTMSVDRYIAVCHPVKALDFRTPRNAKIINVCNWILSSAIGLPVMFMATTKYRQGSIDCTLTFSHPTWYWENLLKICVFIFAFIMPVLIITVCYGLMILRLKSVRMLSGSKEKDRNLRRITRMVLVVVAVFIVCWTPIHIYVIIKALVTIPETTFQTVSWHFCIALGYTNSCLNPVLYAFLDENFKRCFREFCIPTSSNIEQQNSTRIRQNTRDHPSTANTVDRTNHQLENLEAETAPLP
UniProt P41145, whole entry: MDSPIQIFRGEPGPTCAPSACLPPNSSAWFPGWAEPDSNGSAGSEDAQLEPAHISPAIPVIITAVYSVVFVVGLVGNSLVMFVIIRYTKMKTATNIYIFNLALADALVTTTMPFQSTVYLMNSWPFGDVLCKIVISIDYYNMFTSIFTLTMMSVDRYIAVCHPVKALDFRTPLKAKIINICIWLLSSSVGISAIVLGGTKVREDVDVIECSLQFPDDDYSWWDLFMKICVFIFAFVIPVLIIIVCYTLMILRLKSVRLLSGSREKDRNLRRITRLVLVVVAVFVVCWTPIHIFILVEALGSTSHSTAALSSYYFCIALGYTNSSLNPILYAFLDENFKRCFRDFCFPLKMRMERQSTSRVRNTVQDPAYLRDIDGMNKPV
UniProt P41143, whole entry: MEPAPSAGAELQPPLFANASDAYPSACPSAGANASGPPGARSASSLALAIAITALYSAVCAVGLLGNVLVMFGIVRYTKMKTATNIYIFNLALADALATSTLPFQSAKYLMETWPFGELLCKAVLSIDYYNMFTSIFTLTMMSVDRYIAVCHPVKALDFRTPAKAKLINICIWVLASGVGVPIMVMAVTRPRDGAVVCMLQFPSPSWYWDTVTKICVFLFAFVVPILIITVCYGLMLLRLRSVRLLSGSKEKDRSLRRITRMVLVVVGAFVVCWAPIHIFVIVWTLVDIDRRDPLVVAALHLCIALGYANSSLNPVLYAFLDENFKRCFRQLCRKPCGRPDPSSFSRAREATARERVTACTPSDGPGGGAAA

How the values were obtained:
[1] = target: Mu-type opioid receptor (Homo sapiens) (UniProt P35372); assay: Activity at human mu opioid receptor expressed in CHO cells by [35S]GTPgammaS binding assay
Homo sapiens [2] = species: Homo sapiens; assay: Selectivity for human ORL1 receptor over human delta opioid receptor
Homo sapiens [3] = species: Homo sapiens; assay: Selectivity for human ORL1 receptor over human mu opioid receptor
Homo sapiens [4] = species: Homo sapiens; assay: Selectivity for human ORL1 receptor over human kappa opioid receptor
[5] = target: Kappa-type opioid receptor (Homo sapiens) (UniProt P41145); assay: Activity at human kappa opioid receptor expressed in CHO cells by [35S]GTP-gamma-S binding assay
[6] = target: Delta-type opioid receptor (Homo sapiens) (UniProt P41143); assay: Activity at human delta opioid receptor expressed in CHO cells by [35S]GTP-gamma-S binding assay

`CCn1c(=O)n([C@@H]2CCN(CC3CCCCCCC3)C[C@H]2CO)c2ccccc21` gave a Ke [1] of 75.6 nM, a Ke (Homo sapiens [2]) of 887 nM and a Ke (Homo sapiens [3]) of 89 nM. The Ke (Homo sapiens [4]) was 227 nM, the Ke [5] was 195 nM and the Ke [6] was 754 nM.
